# Antibody variant affinities, Ab-14 light chain, assay B

Antigen: PDVDLGDISGINAS, a 14-residue peptide of the SARS-CoV-2 spike HR2 region.

Parent scFv Ab-14: VH joined to VL by three GGGGS repeats. Changes lie in the light chain CDRs alone.
VH: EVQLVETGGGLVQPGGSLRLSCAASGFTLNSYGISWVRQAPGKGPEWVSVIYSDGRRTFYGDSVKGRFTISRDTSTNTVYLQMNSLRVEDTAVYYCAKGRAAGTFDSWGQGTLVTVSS
VL: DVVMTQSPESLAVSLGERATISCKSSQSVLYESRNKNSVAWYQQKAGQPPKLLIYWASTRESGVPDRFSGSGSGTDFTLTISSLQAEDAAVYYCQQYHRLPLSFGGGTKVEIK

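Designed CDR sequences, proposed from the first random library and measured here. Several design methods are mixed in this list. AlphaSeq pools MATa yeast showing the antibodies with MATalpha yeast showing the peptide. After mating in shaken culture at 30 °C for 16 h, diploids were selected and their barcode pairs sequenced. The ratio of observed to expected reads was calibrated, replicate by replicate, on BCL2-family standards whose Kd was known from biolayer interferometry. Each pool was mated in six replicate cultures.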

Changes read parent residue, position, new residue, counted from the first residue of the VL shown.
This list holds designs with at most six substitutions.
Values are apparent Kd, the geometric mean of the replicates that gave a signal; lower means stronger binding.
"nd" marks a missing value. The strain was present, yet no cells mated with the target were sequenced in any replicate, which points to weak or no binding.
Entries are sorted by rising average, undetected variants last.
Of ten entries with the parent sequence, four were seen in most replicates (averages 2.2 nM to 240 nM), three in one and three in none, so single entries are noisy.
In the paper, a design with two or fewer of six values counts as a poor binder.
Nonspecific signal, from three strains lacking the peptide, appeared in 4% of pairings of all light chain designs, centred on 430 nM (5% of these signals below 38 nM); values are not corrected for it.
Values of this round are not directly comparable with the first-round values of the same sequences.

For S25I+S28E+Y31F+W56D, the assay gave 400 pM (6 of 6 replicates).
For S25F+W56D+E61L, the assay gave 450 pM (6 of 6 replicates).
For S25V+S26L+S38N+W56H+S62D+H98A, the assay gave 460 pM (6 of 6 replicates).
For Q27I+V29Y+L30D+W56A, the assay gave 570 pM (6 of 6 replicates).
For S26Q+W56Q, the assay gave 640 pM (6 of 6 replicates).
For V29W+K36F+N37W+W56N+S62D, the assay gave 680 pM (6 of 6 replicates).
For K24H+Q27P+L30N+W56N, the assay gave 720 pM (6 of 6 replicates).
For S25L+S33W+W56E, the assay gave 880 pM (6 of 6 replicates).
For S25L+S26E+V29N+W56N+T59Q+E61L, the assay gave 910 pM (6 of 6 replicates).
For S25L+S26Q+V29W+L30P+W56N, the assay gave 920 pM (6 of 6 replicates).
For S25M+W56S, the assay gave 1.1 nM (6 of 6 replicates).
For S25A+S26E+S28G+W56G, the assay gave 1.2 nM (6 of 6 replicates).
For S25L+N37F+W56H, the assay gave 1.3 nM (6 of 6 replicates).
For S25M+V29Y+W56N, the assay gave 1.4 nM (6 of 6 replicates).
For K24F+S25L+V29Q+W56N, the assay gave 1.5 nM (6 of 6 replicates).
For S25F+R34T+N35T+K36D+W56N, the assay gave 1.6 nM (6 of 6 replicates).
For Y31F+W56D+Q96S, the assay gave 1.7 nM (6 of 6 replicates).
For S25V+N35M+W56D+E61C+S103H, the assay gave 1.7 nM (6 of 6 replicates).
For S25I+S28A+V29Q+W56Q+T59H+S62Q, the assay gave 1.8 nM (6 of 6 replicates).
For E32Q+W56D, the assay gave 1.8 nM (6 of 6 replicates).
For S25L+S26L+W56H+S62D+H98G, the assay gave 1.9 nM (6 of 6 replicates).
For S25Q+S28A+V29F+Y31Q+W56D+S58N, the assay gave 2.0 nM (6 of 6 replicates).
For S25L+Q27G+L30G+K36P+W56N+S62L, the assay gave 2.1 nM (6 of 6 replicates).
For Y31F+E32Q+W56D, the assay gave 2.2 nM (6 of 6 replicates).
For S25L+V29C+W56N+E61C, the assay gave 2.9 nM (6 of 6 replicates).
For S25L+S26Q+V29E+W56S+E61S, the assay gave 3.5 nM (6 of 6 replicates).
For R34L+W56Q+E61T, the assay gave 8.5 nM (6 of 6 replicates).
For V29A+S38N, the assay gave 8.7 nM (6 of 6 replicates).
For S26Q+E32D+W56M, the assay gave 9.9 nM (6 of 6 replicates).
For Q27Y+V29W, the assay gave 25 nM (2 of 6 replicates).
For Y31V+H98F, the assay gave 32 nM (6 of 6 replicates).
For W56Q+P101V, the assay gave 36 nM (5 of 6 replicates).
For S25Q+L30P+K36E, the assay gave 50 nM (6 of 6 replicates).
For S26L+N35M+W56H+S62D, the assay gave 55 nM (3 of 6 replicates).
For T59V, the assay gave 110 nM (5 of 6 replicates).
For V29R+T59I, the assay gave 120 nM (6 of 6 replicates).
For E32Q+L102I, the assay gave 140 nM (2 of 6 replicates).
For Q27H+R34Q+S62N+Y97T, the assay gave 420 nM (3 of 6 replicates).
For Y31D+N35F, the assay gave 640 nM (6 of 6 replicates).
For S25W+L30R+S33D+R34F+A57V, the assay gave 2.7 µM (5 of 6 replicates).
For V29R+Y97F, the assay gave nd (0 of 6 replicates).
For S25V+N37P+P101F, the assay gave nd (0 of 6 replicates).
For K24S+V29L+R34M+N35E, the assay gave nd (0 of 6 replicates).
For Q27F+S103N, the assay gave nd (0 of 6 replicates).
For S28A+A40W+T59I, the assay gave nd (0 of 6 replicates).
For S25C+R34N+K36S+S38A+Y97V, the assay gave nd (0 of 6 replicates).

The measurements come from Li et al. 2023 (doi:10.1038/s41467-023-39022-2) through the FLAb antibody collection.